Measured values taken from ChEMBL document CHEMBL5038590, “Discovery of G Protein-Biased Ligands against 5-HT7R” (J Med Chem, 2021).

Protein sequences, listed by entry. Tags and fused reporters are not part of them.
UniProt P34969, whole entry: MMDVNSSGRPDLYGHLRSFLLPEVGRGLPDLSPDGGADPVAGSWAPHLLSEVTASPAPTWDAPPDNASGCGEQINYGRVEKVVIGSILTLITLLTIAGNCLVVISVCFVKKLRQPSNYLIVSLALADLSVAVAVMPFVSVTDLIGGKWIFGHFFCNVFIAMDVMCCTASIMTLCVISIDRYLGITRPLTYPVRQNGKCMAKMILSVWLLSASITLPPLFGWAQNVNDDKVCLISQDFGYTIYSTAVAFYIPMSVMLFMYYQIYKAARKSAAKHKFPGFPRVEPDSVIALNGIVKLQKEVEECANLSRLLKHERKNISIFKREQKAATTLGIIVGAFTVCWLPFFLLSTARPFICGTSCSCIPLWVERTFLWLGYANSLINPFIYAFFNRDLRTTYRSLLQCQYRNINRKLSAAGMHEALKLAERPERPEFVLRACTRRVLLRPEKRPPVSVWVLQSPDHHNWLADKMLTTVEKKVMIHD

How the values were obtained:
[1] = target: T1, 5-hydroxytryptamine receptor 7 (Homo sapiens, UniProt P34969); conditions: HEK293, time 22.0 hrs
[2] = target: T1, 5-hydroxytryptamine receptor 7; conditions: HEK293, time 30.0 min

With `CCCN(CCC)Cc1ccc(Cl)c(-c2ccccc2OC)c1` the pEC50 [1] was “inactive” and the pEC50 [2] was “inactive”.

With `CCCCNCCc1ccc(Cl)c(-c2ccccc2OC)c1.Cl` the pEC50 [1] was “inactive” and the pEC50 [2] was “inactive”.

For `CCN(CC)Cc1ccc(Cl)c(-c2ccccc2OC)c1`, the pEC50 [1] was “inactive” and the pEC50 [2] was “inactive”.

In the case of `CCCNCCc1ccc(Cl)c(-c2ccccc2OC)c1.Cl`, the pEC50 [1] is reported as “inactive”.

`CCCN(CCC)CCc1ccc(Cl)c(-c2ccccc2OC)c1` was tested, and the pEC50 [1] was “inactive”.

For `CCN(CC)CCc1ccc(Cl)c(-c2ccccc2OC)c1`, the pEC50 [1] was “inactive”.

For `CCNCCc1ccc(Cl)c(-c2ccccc2OC)c1.Cl`, the pEC50 [1] was “inactive”.

Activity calls are given as the source filed them. No cut-off for these calls is given here.
